{"sequences": {"note": "Amino acid sequences for entries named in this document (tags omitted). A change or cut given only in a name is not applied to a line headed by its entry.", "UniProt P23458": "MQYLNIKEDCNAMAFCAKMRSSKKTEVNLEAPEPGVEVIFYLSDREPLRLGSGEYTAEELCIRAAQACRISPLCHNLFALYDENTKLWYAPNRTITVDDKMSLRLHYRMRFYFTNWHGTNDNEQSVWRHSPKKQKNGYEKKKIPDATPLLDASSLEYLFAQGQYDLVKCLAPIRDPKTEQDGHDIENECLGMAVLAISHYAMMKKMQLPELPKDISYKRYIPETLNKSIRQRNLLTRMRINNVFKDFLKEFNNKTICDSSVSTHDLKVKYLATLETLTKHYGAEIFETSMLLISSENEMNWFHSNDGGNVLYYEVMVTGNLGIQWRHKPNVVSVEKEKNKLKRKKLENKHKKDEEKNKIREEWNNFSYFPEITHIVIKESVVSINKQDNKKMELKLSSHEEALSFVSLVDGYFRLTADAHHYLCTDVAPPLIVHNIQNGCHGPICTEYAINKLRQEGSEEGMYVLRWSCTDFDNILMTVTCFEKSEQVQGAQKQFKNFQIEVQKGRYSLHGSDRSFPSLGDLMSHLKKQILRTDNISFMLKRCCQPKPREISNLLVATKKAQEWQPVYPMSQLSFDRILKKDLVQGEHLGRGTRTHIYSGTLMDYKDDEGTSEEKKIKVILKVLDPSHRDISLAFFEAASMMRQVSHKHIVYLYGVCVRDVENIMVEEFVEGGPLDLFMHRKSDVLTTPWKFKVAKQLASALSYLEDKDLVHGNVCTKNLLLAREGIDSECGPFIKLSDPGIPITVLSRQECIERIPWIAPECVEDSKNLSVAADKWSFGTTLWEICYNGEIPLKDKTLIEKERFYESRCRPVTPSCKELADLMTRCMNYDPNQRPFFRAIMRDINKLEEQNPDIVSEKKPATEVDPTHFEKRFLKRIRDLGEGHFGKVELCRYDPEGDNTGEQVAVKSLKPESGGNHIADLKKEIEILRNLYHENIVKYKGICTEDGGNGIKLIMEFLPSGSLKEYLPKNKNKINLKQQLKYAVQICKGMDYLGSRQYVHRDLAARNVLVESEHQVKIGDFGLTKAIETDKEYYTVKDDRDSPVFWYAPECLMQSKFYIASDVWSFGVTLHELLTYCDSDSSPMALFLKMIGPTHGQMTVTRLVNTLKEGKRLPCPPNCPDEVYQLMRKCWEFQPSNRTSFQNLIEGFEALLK", "UniProt O60674": "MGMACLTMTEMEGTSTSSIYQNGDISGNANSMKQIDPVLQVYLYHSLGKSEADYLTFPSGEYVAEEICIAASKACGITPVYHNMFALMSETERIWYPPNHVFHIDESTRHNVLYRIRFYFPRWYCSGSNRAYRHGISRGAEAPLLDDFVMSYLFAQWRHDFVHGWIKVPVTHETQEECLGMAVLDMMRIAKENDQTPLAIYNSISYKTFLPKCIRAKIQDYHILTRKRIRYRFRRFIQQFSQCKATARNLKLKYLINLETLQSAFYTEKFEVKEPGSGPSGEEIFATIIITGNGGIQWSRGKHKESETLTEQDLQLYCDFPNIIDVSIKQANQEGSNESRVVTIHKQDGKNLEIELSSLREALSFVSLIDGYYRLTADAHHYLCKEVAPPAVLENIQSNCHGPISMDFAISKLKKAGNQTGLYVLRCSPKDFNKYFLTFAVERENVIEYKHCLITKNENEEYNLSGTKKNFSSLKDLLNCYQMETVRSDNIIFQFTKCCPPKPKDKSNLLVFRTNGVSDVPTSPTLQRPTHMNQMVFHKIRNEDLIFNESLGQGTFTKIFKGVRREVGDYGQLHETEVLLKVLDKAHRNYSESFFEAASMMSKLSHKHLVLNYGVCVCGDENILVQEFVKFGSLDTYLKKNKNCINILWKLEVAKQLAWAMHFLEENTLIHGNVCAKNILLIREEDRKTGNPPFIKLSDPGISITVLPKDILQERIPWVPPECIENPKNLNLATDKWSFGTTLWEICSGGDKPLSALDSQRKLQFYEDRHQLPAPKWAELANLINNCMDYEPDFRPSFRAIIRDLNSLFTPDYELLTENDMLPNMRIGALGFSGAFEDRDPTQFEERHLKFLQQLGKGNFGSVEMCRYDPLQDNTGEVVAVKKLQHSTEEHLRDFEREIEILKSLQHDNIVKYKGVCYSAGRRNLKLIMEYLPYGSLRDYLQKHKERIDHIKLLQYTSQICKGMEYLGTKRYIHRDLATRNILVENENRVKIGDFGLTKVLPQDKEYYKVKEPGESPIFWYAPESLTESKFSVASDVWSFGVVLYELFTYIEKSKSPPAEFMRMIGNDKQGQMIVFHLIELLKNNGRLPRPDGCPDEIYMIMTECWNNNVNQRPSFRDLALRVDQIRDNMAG"}, "source": "ChEMBL document CHEMBL3621116", "about": "“Benzimidazole Derivatives as Potent JAK1-Selective Inhibitors” (J Med Chem, 2015)", "key": {"[1]": {"target": "T1, Tyrosine-protein kinase JAK1 (Homo sapiens, UniProt P23458)", "assay": "Inhibition of JAK1 (unknown origin) using 87 uM of ATP and Tyr6 peptide by Z'-LYTE kinase assay", "how_it_was_run": "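Pyridone-6, a pan-JAK inhibitor, served as positive control. IC50 given as mean ± SD of three independent experiments.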"}, "[2]": {"target": "T1, Tyrosine-protein kinase JAK1", "assay": "Inhibition of JAK1 (unknown origin) using 1 mM of ATP and Tyr6 peptide by Z'-LYTE kinase assay"}, "[3]": {"target": "Tyrosine-protein kinase JAK2 (Homo sapiens, UniProt O60674)", "assay": "Inhibition of JAK2 (unknown origin)"}}, "data": [{"smiles": "CC(C)(C)c1nc2c3ccc(F)cc3c3c(=O)[nH]ccc3c2[nH]1", "values": [{"measurement": "IC50", "setting": "[1]", "value": 4, "unit": "nM"}, {"measurement": "IC50", "setting": "[2]", "value": 600, "unit": "nM"}]}, {"smiles": "CCS(=O)(=O)N1CC(CC#N)(n2cc(-c3ncnc4[nH]ccc34)cn2)C1", "note": "[BARICITINIB]", "values": [{"measurement": "IC50", "setting": "[3]", "value": 6, "unit": "nM"}]}]}
